Laboratory results from ChEMBL document CHEMBL1135807, “2,5'-Disubstituted adenosine derivatives: evaluation of selectivity and efficacy for the adenosine A(1), A(2A), and A(3) receptor” (J Med Chem, 2002).

Sequences of proteins named here, by UniProt entry; tags and fusion partners are left off.
UniProt P25099, whole entry: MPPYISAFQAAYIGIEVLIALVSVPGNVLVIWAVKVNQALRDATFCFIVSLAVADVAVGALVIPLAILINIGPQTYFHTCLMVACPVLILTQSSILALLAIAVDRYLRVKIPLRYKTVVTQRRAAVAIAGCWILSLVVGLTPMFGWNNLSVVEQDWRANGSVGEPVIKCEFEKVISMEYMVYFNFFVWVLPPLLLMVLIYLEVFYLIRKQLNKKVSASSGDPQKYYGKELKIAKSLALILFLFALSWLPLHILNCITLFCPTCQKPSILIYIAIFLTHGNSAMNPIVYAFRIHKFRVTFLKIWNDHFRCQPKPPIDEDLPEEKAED

Target: Adenosine receptor A1 (Rattus norvegicus) (UniProt P25099)
Assay: Ability to displace [3H]DPCPX from Adenosine A1 receptor in rat cortical membrane at 10e-5 M
Type: cell membranes

`CCCCC#Cc1nc(N)c2ncn([C@@H]3O[C@H](CO)[C@@H](O)[C@H]3O)c2n1` was tested, and the Displacement was 63.7%.
